Here are results for one compound from US20250345458A1, “COMPLEXING AGENT SALT FORMULATIONS OF PHARMACEUTICAL COMPOUNDS AT LOW STOICHIOMETRIC RATIOS” (Bexson Biomedical, Inc., priority 2022, published 2025).

Molecules are shown by their SMILES.

The series is described as follows: API-CapAcid salts prepared in ethanol, then 70 mg of solid added to 1 mL water (visual). The series is classed as physicochemical. The note with it: Method 2: FB dissolved in 22 mL ethanol, then CapAcid 1 molar equivalent added. As to the method:
In order to make sure that the issue of the poorly soluble API-Cap formulations prepared at the 70 mg/mL concentration was not due to a failure of the API-Cap salt to form in aqueous conditions, these salts were also prepared in ethanol. This would ensure better solubility of the API FB ensuring a chance to react with the solubilized CapAcid in solution. […] The resulting solid API-CapAcid salts were then obtained as solids by evaporation of the ethanol, followed by lyophilization. […] Thus, some amines due to poor solubility remained poorly soluble as the Cap Acid salt. […] Whereas those with moderate-to-good solubility were successful. […] API-CapAcid salts likely show improved solubility over standard API-acid salts used in the art (e.g., HCl, HBr, fumarate, acetate, mesylate, etc). Furthermore, given the multiple ionic side chains in SBEBCD, the solubility can be tuned and optimized by using different API:SBEBCD ratios (e.g., 6.5:1, 5:1, 4:1, 3:1, 2:1, 1:1).
In a scintillation vial, a solution of API FB (100 mg) and CapAcid (1 molar equivalent, moisture corrected) was prepared by dissolving Cap Acid in 200 proof ethanol (5 mL) and then adding the freebase API. […] Whether or not the freebase dissolved after the second addition of ethanol, the initial pH, prior to titration, was recorded. The vial was then wrapped in foil and left uncovered in the hood to allow the ethanol to evaporate. […]

In the case of `COc1ccccc1OCCNCC(O)COc1cccc2[nH]c3ccccc3c12` (stereo not shown) [Carvedilol], the “pH of the ethanol solution” value stood at 7.56.
